Experimental data as given in patent US20040005550A1, “Methods and compositions useful for targeting activated vitronectin receptor alphavbeta3” (The Scripps Research Institute, priority 1998, published 2004).

By UniProt entry, the sequences of proteins in these tests, tags left out. Residues count along the entry.
human αvβ3 integrin on cells (human), P06756, UniProt P06756, 31-1048, chain 1 of 2: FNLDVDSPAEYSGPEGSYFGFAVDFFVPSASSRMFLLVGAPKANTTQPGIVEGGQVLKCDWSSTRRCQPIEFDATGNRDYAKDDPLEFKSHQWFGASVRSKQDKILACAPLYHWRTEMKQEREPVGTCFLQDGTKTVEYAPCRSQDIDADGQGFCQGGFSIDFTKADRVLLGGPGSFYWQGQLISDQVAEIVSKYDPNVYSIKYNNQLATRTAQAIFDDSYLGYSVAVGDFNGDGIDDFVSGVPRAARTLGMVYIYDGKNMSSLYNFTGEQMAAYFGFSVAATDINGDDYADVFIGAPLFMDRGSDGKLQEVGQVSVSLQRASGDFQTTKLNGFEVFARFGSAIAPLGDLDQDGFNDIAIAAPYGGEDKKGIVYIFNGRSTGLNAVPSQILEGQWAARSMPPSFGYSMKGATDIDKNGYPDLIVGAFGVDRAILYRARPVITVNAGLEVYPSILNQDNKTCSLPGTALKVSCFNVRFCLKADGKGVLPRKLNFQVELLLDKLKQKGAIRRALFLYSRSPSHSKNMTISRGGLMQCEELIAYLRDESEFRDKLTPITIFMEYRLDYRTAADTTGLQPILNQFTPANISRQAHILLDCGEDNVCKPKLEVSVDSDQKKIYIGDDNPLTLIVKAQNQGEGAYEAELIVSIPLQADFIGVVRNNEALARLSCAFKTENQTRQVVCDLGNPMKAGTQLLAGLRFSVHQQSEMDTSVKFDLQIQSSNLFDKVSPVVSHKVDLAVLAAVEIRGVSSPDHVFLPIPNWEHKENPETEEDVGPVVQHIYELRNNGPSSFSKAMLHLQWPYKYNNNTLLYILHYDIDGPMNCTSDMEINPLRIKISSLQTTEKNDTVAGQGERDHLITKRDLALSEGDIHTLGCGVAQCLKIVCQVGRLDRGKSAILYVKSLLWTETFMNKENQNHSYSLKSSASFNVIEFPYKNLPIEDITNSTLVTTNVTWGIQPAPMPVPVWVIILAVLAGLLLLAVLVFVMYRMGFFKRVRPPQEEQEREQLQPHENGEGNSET

Assays:
[1] = molecular target: human αvβ3 integrin on cells (human), P06756; assay: flow cytometry, AP5-treated αvβ3-CHO cells; 50 µM cRGDfV against WOW-1 Fab
[2] = molecular target: human αvβ3 integrin on cells (human), P06756; assay: flow cytometry, AP5-treated αvβ3-CHO cells; 50 µM cRGDfV against aPB

RGDFV (modifications not checked) [cRGDfV]
percent inhibition of WOW-1 Fab binding [1]: > 85%
percent inhibition of aPB binding [2]: > 85%
